Measurements from patent publication US10351558B2, “Factor IXa inhibitors” (Merck Sharp & Dohme Corp., priority 2015, dated 2019).

By UniProt entry, the sequences of proteins in these tests, tags left out. Residues count along the entry.
UniProt P00740, 227-461: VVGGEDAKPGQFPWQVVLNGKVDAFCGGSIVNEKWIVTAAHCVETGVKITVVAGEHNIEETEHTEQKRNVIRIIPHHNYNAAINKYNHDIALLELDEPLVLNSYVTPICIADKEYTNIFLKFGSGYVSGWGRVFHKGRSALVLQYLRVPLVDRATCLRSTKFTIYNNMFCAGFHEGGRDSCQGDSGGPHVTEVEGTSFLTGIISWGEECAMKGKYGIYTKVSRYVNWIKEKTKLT
UniProt P00740, 47-191 partner: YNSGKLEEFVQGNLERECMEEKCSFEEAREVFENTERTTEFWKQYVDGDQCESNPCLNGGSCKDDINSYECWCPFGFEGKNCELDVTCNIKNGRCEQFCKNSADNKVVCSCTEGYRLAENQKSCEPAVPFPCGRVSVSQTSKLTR

The compounds below were run against hFIXa (Homo sapiens (Human), UniProt P00740) (assay: Determination of inhibitory activity against Factor IXa (cleavage of fluorescent peptide CH3SO2-D-CHG-Gly-Arg-AFC)).
Assay type: biochemical

Row | SMILES | IC50
1 | Cc1ccc2c(c1)nc1n2C[C@@](NC(=O)c2ccc(-n3cncn3)cc2Cl)(c2ccccc2)CC1 [Example 58] | 0.0129 µM
2 | Cc1ccc2c(c1)nc1n2C[C@@](NC(=O)c2ccc(-n3cnnc3)cc2Cl)(c2cccnc2)CC1 [Example 59] | 0.0125 µM
3 | Cc1ccc2c(c1)nc1n2C[C@@](NC(=O)c2ccc(-n3cncn3)cc2Cl)(c2ccsc2)CC1 [Example 60] | 0.00565 µM
4 | Cc1ccc2c(c1)nc1n2C[C@@](NC(=O)c2ccc(-c3cncnc3)cc2Cl)(c2ccccc2)CC1 [Example 61] | 0.00555 µM
5 | Cc1ccc2c(c1)nc1n2C[C@@](NC(=O)c2ccc(-n3cnc(C)c3)cc2Cl)(c2ccccc2)CC1 [Example 62] | 0.0193 µM
6 | CCc1ccc2c(c1)nc1n2CC(NC(=O)c2ccc(-n3cnnc3)cc2Cl)(c2ccccc2)CC1 (stereo not drawn) [Example 63] | 0.0189 µM
7 | Cc1cc2nc3n(c2cc1C)C[C@@](NC(=O)c1ccc(-n2cnnc2)cc1Cl)(c1ccccc1)CC3 [Example 65] | 0.00272 µM
8 | Cc1ccc2c(c1)nc1n2C[C@@](NC(=O)c2ccc(-n3cnc(C)n3)cc2Cl)(c2cccnc2)CC1 [Example 66] | 0.0177 µM
9 | Cc1cc2nc3n(c2cc1F)C[C@@](NC(=O)c1ccc(-n2cnnc2)cc1Cl)(c1ccccc1)CC3 [Example 68] | 0.0126 µM
10 | Cc1ccc2c(c1)nc1n2CC(NC(=O)c2ccc(-n3cnnc3)cc2Cl)(c2cccc(F)c2)CC1 (stereo not drawn) [Example 69] | 0.00421 µM
11 | Cc1ccc2c(c1)nc1n2C[C@@](NC(=O)c2ccc(-n3cnc(C)n3)cc2Cl)(c2ccsc2)CC1 [Example 70] | 0.00997 µM
12 | O=C(N[C@]1(c2ccccc2)CCc2nc3cc(Cl)ccc3n2C1)c1ccc(-n2cnnc2)cc1Cl [Example 71] | 0.0152 µM
13 | Cc1ccc2c(c1)nc1n2C[C@](C)(NC(=O)c2ccc(-n3cnc4cc(Cl)ccc43)cc2Cl)CC1 [Example 72] | 0.0161 µM
14 | O=C(N[C@]1(c2ccccc2)CCc2nc3ccc4cn[nH]c4c3n2C1)c1ccc(-n2cnnc2)cc1Cl [Example 73] | 0.00635 µM
15 | Cc1ccc2c(c1)nc1n2C[C@@](NC(=O)c2c(C)cc(-n3cnc(C)n3)cc2Cl)(c2ccccc2)CC1 [Example 74] | 0.0104 µM
16 | Cc1ccc2c(c1)nc1n2C[C@](C)(NC(=O)c2ccc(-n3cnc4cc(C(N)=O)ccc43)cc2Cl)CC1 [Example 75] | 0.00892 µM
17 | Cc1ccc2c(c1)nc1n2C[C@](C)(NC(=O)c2ccc(-n3cnc4ccc(C(N)=O)cc43)cc2Cl)CC1 [Example 76] | 0.00939 µM
18 | Cc1ccc2c(c1)nc1n2C[C@](C)(NC(=O)c2ccc(-n3cnc4ccc(C(=O)O)cc43)cc2Cl)CC1 [Example 77] | 0.0159 µM
19 | Cc1ccc2c(c1)nc1n2C[C@](C)(NC(=O)c2ccc(-n3cnc4cc(C(=O)O)ccc43)cc2Cl)CC1 [Example 78] | 0.0102 µM
20 | Cc1ccc2c(c1)nc1n2CC(NC(=O)c2ccc(-n3cnc(C)n3)cc2Cl)(c2ccc(F)cc2)CC1 (stereo not drawn) [Example 79] | 0.0141 µM
21 | Cc1ccc2c(c1)nc1n2C[C@@](NC(=O)c2ccc(-n3cnc(C)n3)cc2Cl)(c2ccccc2)CC1F (stereo partly drawn) [Example 80] | 0.00915 µM
22 | Cc1ccc2c(c1)nc1n2CC(NC(=O)c2ccc(-n3cnc(C)n3)cc2Cl)(c2cccc(F)c2)CC1 (stereo not drawn) [Example 81] | 0.0082 µM

Row | SMILES | IC50
23 | Cc1ccc2c(c1)nc1n2C[C@@](NC(=O)c2c(Cl)cc(-n3cnnc3)cc2Cl)(c2ccccc2)CC1 [Example 82] | 0.00403 µM
24 | Cc1cc2nc3n(c2cc1Cl)C[C@@](NC(=O)c1ccc(-n2cnnc2)cc1Cl)(c1ccccc1)CC3 [Example 83] | 0.00479 µM
25 | Cc1ccc2c(c1)nc1n2CC(NC(=O)c2ccc(-n3cnnc3)cc2Cl)(c2cccc(Cl)c2)CC1 (stereo not drawn) [Example 84] | 0.00566 µM
26 | Cc1ccc2c(c1)nc1n2CC(NC(=O)c2ccc(-n3cnnc3)cc2Cl)(c2ccccc2)CC1(F)F (stereo not drawn) [Example 85] | 0.00256 µM
27 | Cc1ccc2c(c1)nc1n2CC(NC(=O)c2ccc(-n3cnnc3)cc2Cl)(c2cc(F)cc(F)c2)CC1 (stereo not drawn) [Example 86] | 0.00722 µM
28 | Cc1ccc2c(c1)nc1n2C[C@@](NC(=O)c2ccc(-n3cnc(C4CC4)n3)cc2Cl)(c2ccccc2)CC1 [Example 87] | 0.0126 µM
29 | Cc1ccc2c(c1)nc1n2C[C@@](NC(=O)c2ccc(-n3cnnc3)cc2Cl)(c2cccc(C(=O)O)c2)CC1 [Example 88] | 0.00286 µM
30 | CNC(=O)c1ccc2ncn(-c3ccc(C(=O)N[C@]4(C)CCc5nc6cc(C)ccc6n5C4)c(Cl)c3)c2c1 [Example 89] | 0.0102 µM
31 | Cc1ccc2c(c1)nc1n2C[C@@](NC(=O)c2ccc(-n3cc(CCO)nn3)cc2Cl)(c2ccccc2)CC1 [Example 90] | 0.00883 µM
32 | CNC(=O)c1ccc2c(c1)ncn2-c1ccc(C(=O)N[C@]2(C)CCc3nc4cc(C)ccc4n3C2)c(Cl)c1 [Example 91] | 0.0115 µM
33 | Cc1ccc2c(c1)nc1n2C[C@@](NC(=O)c2ccc(-n3cnc(C)n3)cc2Cl)(c2ccc(Cl)cc2)CC1 [Example 92] | 0.0174 µM
34 | Cc1ccc2c(c1)nc1n2C[C@@](NC(=O)c2ccc(-n3cnc(C)n3)cc2Cl)(c2cccc(Cl)c2)CC1 [Example 93] | 0.0114 µM
35 | Cc1ccc2c(c1)nc1n2C[C@@](NC(=O)c2c(Cl)cc(-n3cnc(C)n3)cc2Cl)(c2ccccc2)CC1 [Example 94] | 0.00383 µM
36 | Cc1ccc2c(c1)nc1n2CC(NC(=O)c2ccc(-n3cnc(C)n3)cc2Cl)(c2cncc(Cl)c2)CC1 (stereo not drawn) [Example 95] | 0.015 µM
37 | Cc1ccc2c(c1)nc1n2CC(NC(=O)c2ccc(-n3cnc(C)n3)cc2Cl)(c2cc(F)cc(F)c2)CC1 (stereo not drawn) [Example 96] | 0.0116 µM
38 | Cc1ccc2c(c1)nc1n2CC(NC(=O)c2ccc(-n3cnc(C)n3)cc2Cl)(c2ccccc2)CC1(F)F (stereo not drawn) [Example 97] | 0.00282 µM
39 | Cc1ccc2c(c1)nc1n2C[C@@](NC(=O)c2ccc(-n3cnnc3)cc2Cl)(c2ccc3ccccc3c2)CC1 [Example 98] | 0.00292 µM
40 | Cc1ccc2c(c1)nc1n2CC(NC(=O)c2ccc(-n3cnc(C)n3)cc2Cl)(c2cccc(C(=O)O)c2)CC1 (stereo not drawn) [Example 99] | 0.00427 µM
41 | Cc1ccc2c(c1)nc1n2C[C@@](NC(=O)c2ccc(-n3cnc(C)n3)cc2Cl)(c2ccc(C(=O)O)cc2)CC1 [Example 100] | 0.0066 µM
42 | Cc1ccc2c(c1)nc1n2C[C@@](NC(=O)c2ccc(-n3cnc(C)n3)cc2Cl)(c2ccc3ccccc3c2)CC1 [Example 101] | 0.0162 µM
43 | Cc1ccc2c(c1)nc1n2C[C@@](NC(=O)c2ccc(-n3cnn(C)c3=O)cc2Cl)(c2ccccc2)CC1(F)F [Example 102] | 0.00361 µM
44 | Cc1ccc2c(c1)nc1n2C[C@@](NC(=O)c2ccc(-n3cnnc3)cc2Cl)(c2cccc(C(F)(F)F)c2)CC1 [Example 103] | 0.00726 µM

Row | SMILES | IC50
45 | Cc1ccc2c(c1)nc1n2C[C@@](NC(=O)c2ccc(-n3cnc(C)n3)cc2Cl)(c2cccc(C(F)(F)F)c2)CC1 [Example 105] | 0.0115 µM
46 | Cc1ccc2c(c1)nc1n2CC(NC(=O)c2ccc(-n3cnnc3)cc2Cl)(c2cccc(OC(F)(F)F)c2)CC1 (stereo not drawn) [Example 106] | 0.0138 µM
47 | Cc1ccc2c3c([nH]c2c1)C[C@@H]1CC[C@H]3[C@@H]1NC(=O)c1ccc(-n2cnnc2)cc1Cl [Example 107, 2-chloro-N-((7S,10R,11R)-3-methyl-5,6,7,8,9,10-hexahydro-7,10-methanocyclohepta[b]indol-11-yl)-4-(4H-1,2,4-triazol-4-yl)benzamide] | 0.0543 µM
48 | Cc1ccc2c3c([nH]c2c1)CCC(NC(=O)c1ccc(-n2cnnc2)cc1Cl)(c1ccccc1)C3 (stereo not drawn) [Example 108] | 0.0179 µM
49 | Cc1ccc2c3c([nH]c2c1)CCC(NC(=O)c1ccc(-n2cnnc2)cc1Cl)(c1cccc(F)c1)C3 (stereo not drawn) [Example 109] | 0.0084 µM
50 | Cc1ccc2c3c([nH]c2c1)CCC(NC(=O)c1ccc(-n2cnnc2C)cc1Cl)(c1cccc(F)c1)C3 (stereo not drawn) [Example 110] | 0.0112 µM
51 | Cc1cc2[nH]c3c(c2cc1C)CC(NC(=O)c1ccc(-n2cnnc2)cc1Cl)(c1cccc(F)c1)CC3 (stereo not drawn) [Example 111] | 0.0166 µM
52 | Cc1ccc2c3c([nH]c2c1)CCC(NC(=O)c1ccc(-n2cnnc2C)cc1Cl)(c1cccc(Cl)c1)C3 (stereo not drawn) [Example 112] | 0.00643 µM
53 | Cc1ccc2c3c([nH]c2c1)CCC(NC(=O)c1c(Cl)cc(-n2cnnc2)cc1Cl)(c1cccc(F)c1)C3 (stereo not drawn) [Example 113] | 0.0047 µM
54 | Cc1ccc2c3c([nH]c2c1)CCC(NC(=O)c1ccc(-n2cnnc2)cc1Cl)(c1cc(F)cc(Cl)c1)C3 (stereo not drawn) [Example 114] | 0.0152 µM
55 | Cc1cc(O)c2c3c(nn2c1)CCC(NC(=O)c1c(C)cc(-n2cnnc2)cc1Cl)(c1ccccc1)C3 (stereo not drawn) [Example 115] | 0.0139 µM
56 | Cc1ccc2c3c([nH]c2c1)CC[C@](NC(=O)c1c(Cl)cc(-n2cnc(C)n2)cc1Cl)(c1nc(C)c(C)s1)C3 [Example 116] | 0.0136 µM
57 | Cc1ccc2c3c([nH]c2c1)CCC(NC(=O)c1c(Cl)cc(-n2cnnc2)cc1Cl)(c1cc(F)cc(Cl)c1)C3 (stereo not drawn) [Example 117] | 0.00685 µM
58 | Cc1ccc2c3c(n(CC(=O)O)c2c1)CC[C@](NC(=O)c1ccc(-n2cnc(C)n2)cc1Cl)(c1cccc(F)c1)C3 [Example 118] | 0.00859 µM
59 | O=C(O)Cn1c2c(c3ccc(Cl)cc31)C[C@@](NC(=O)c1ccc(-n3cnnc3)cc1Cl)(c1cccc(F)c1)CC2 [Example 119] | 0.00117 µM
60 | Cc1ccc2c3c(n(CCC(=O)O)c2c1)CC[C@](NC(=O)c1ccc(-n2cnc(C)n2)cc1Cl)(c1cccc(F)c1)C3 [Example 120, (R)-3-(3-(2-chloro-4-(3-methyl-1H-1,2,4-triazol-1-yl)benzamido)-3-(3-fluorophenyl)-7-methyl-3,4-dihydro-1H-carbazol-9(2H)-yl)propanoic acid] | 0.00662 µM
61 | Cc1ccc2c3c([nH]c2c1)CCC(NC(=O)c1c(Cl)cc(-n2cnnc2)cc1Cl)(c1cc(F)cc(C(F)(F)F)c1)C3 (stereo not drawn) [Example 121] | 0.0192 µM
62 | Cc1ccc2c3c(n(CCC(=O)O)c2c1)CC[C@](NC(=O)c1c(Cl)cc(-n2cnc(C)n2)cc1Cl)(c1cccc(F)c1)C3 [Example 122] | 0.0117 µM
63 | Cc1ccc2c3c(n(CCC(=O)O)c2c1)CC[C@](NC(=O)c1c(Cl)cc(-n2cnnc2)cc1Cl)(c1cccc(Cl)c1)C3 [Example 123] | 0.0036 µM
64 | Cc1ccc2c(c1)cc1n2C[C@](C)(NC(=O)c2ccc(-n3cnnc3)cc2Cl)CC1 [Example 124] | 0.136 µM
65 | Cc1ccc2c(c1)cc1n2C[C@@](NC(=O)c2ccc(-n3cnnc3)cc2Cl)(c2ccccc2)CC1 [Example 125] | 0.0348 µM
66 | Cc1ccc2c(c1)c(C(N)=O)c1n2C[C@](C)(NC(=O)c2ccc(-n3cnnc3)cc2Cl)CC1 [Example 126] | 0.0178 µM
